One data set has as its system A549 cell line. Put plainly: MTT test of inhibiting tumor cell activity, A549. The settings on record: read-out: Cytotoxic activity (IC50, μM) A549, A549 cells, 48 h cultivation.
Another data set concerns BGC823 cell line. The data set can be described thus: MTT test of inhibiting tumor cell activity, BGC823. Particulars: read-out: Cytotoxic activity (IC50, μM) BGC823, BGC823 cells, 48 h cultivation.
The next data set deals with Hela cell line. The data set can be described thus: MTT test of inhibiting tumor cell activity, Hela. The settings on record: read-out: Cytotoxic activity (IC50, μM) Hela, Hela cells, 48 h cultivation.

For the substance “4-N-(2-ethyl-5-nitroaniline)-4-deoxy-4′-demethylepipodophyllotoxin [Compound 18]”, the IC50 is 4.28 ± 0.48 µM with A549 cell line and 27.12 ± 0.24 µM in the data set with BGC823 cell line.
Regarding “4-N-(4-chloro-3-methylaniline)-4-deoxy-4′-demethylepipodophyllotoxin [Compound 2]”, the figures for the IC50 in the data set with Hela cell line and in the data set with BGC823 cell line were 2.01 ± 1.21 µM and 1.77 ± 0.37 µM, respectively.

For the origin of these results see patent US9714254B2, “Anilino podophyllin derivative having antitumor activity, method for preparation thereof, and use thereof” (HUBEI UNIVERSITY OF TECHNOLOGY, priority 2013, dated 2017).
